The values that follow come from paper PMC9848257, “Design and synthesis of novel rigid dibenzo[b,f]azepines through ring closure technique as promising anticancer candidates against leukaemia and acting as selective topoisomerase II inhibitors and DNA intercalators” (Journal of Enzyme Inhibition and Medicinal Chemistry, 2023).

In the assay the target is topoisomerase II. Kind of assay: Topoisomerase II inhibitory assay. The assay is classed as biochemical. The following applies: in vitro, doxorubicin co-assayed as reference. The procedure:
All the promising anticancer closed analogues (5a–g) were then investigated to measure the topoisomerase II inhibitory effect using the reported procedure by Patra et al.[36] and doxorubicin as a reference drug.
Therefore, following the procedure reported by Patra et al., the topoisomerase II activity was evaluated. Doxorubicin, an FDA-approved topoisomerase II inhibitor, was co-assayed as a reference. The IC50 values of the tested congeners and doxorubicin were recorded and represented in Table 2.

Turning to `COc1cccc2c1C(=O)c1c(O)c3c(c(O)c1C2=O)C[C@@](O)(C(=O)CO)C[C@@H]3O[C@H]1C[C@H](N)[C@H](O)[C@H](C)O1` [Doxorubicin, reference compound], 3.45 µM corresponded to half-maximal inhibition (IC50). For the same compound, under “listed as doxorubicin”, the IC50 (usually the point on the concentration scale where inhibition reaches its midpoint) came to 3.44 ± 0.19 µM.
